Experiments:
Experiment in all cases: Kinase profiling in a biochemical assay panel (mobility shift assays and ELISA), %-inhibition at 1 μM; selectivity entropy
[1] = target: panel of more than 300 wild-type and mutant kinases (313 kinase panel) (Homo sapiens, UniProt Q16816)
[2] = target: panel of more than 300 wild-type and mutant kinases (313 kinase panel) (Homo sapiens, UniProt Q15375); conditions: 1 µM
[3] = target: panel of more than 300 wild-type and mutant kinases (313 kinase panel) (Homo sapiens, UniProt Q16288); conditions: 1 µM
[4] = target: panel of more than 300 wild-type and mutant kinases (313 kinase panel) (Homo sapiens, UniProt Q02763); conditions: 1 µM
[5] = target: panel of more than 300 wild-type and mutant kinases (313 kinase panel) (Homo sapiens, UniProt Q06418); conditions: 1 µM
[6] = target: panel of more than 300 wild-type and mutant kinases (313 kinase panel) (Homo sapiens, UniProt Q9H2X6); conditions: 1 µM
[7] = target: panel of more than 300 wild-type and mutant kinases (313 kinase panel) (Homo sapiens, UniProt P49761); conditions: 1 µM
[8] = target: panel of more than 300 wild-type and mutant kinases (313 kinase panel) (Homo sapiens, UniProt P42680); conditions: 1 µM
[9] = target: panel of more than 300 wild-type and mutant kinases (313 kinase panel) (Homo sapiens, UniProt P49759); conditions: 1 µM
[10] = target: panel of more than 300 wild-type and mutant kinases (313 kinase panel) (Homo sapiens, UniProt P16234); conditions: 1 µM
[11] = target: panel of more than 300 wild-type and mutant kinases (313 kinase panel) (Homo sapiens, UniProt Q9BXA7); conditions: 1 µM
[12] = target: panel of more than 300 wild-type and mutant kinases (313 kinase panel) (Homo sapiens, UniProt P21802); conditions: 1 µM
[13] = target: panel of more than 300 wild-type and mutant kinases (313 kinase panel) (Homo sapiens, UniProt Q8IW41); conditions: 1 µM
[14] = target: panel of more than 300 wild-type and mutant kinases (313 kinase panel) (Homo sapiens, UniProt Q9P0L2); conditions: 1 µM
[15] = target: panel of more than 300 wild-type and mutant kinases (313 kinase panel) (Homo sapiens, UniProt P11309); conditions: 1 µM
[16] = target: panel of more than 300 wild-type and mutant kinases (313 kinase panel) (Homo sapiens, UniProt P16591); conditions: 1 µM
[17] = target: panel of more than 300 wild-type and mutant kinases (313 kinase panel) (Homo sapiens, UniProt Q9BUB5); conditions: 1 µM
[18] = target: panel of more than 300 wild-type and mutant kinases (313 kinase panel) (Homo sapiens, UniProt P36507); conditions: 1 µM
[19] = target: panel of more than 300 wild-type and mutant kinases (313 kinase panel) (Homo sapiens, UniProt O75676); conditions: 1 µM
[20] = target: panel of more than 300 wild-type and mutant kinases (313 kinase panel) (Homo sapiens, UniProt Q8TDC3); conditions: 1 µM
[21] = target: panel of more than 300 wild-type and mutant kinases (313 kinase panel) (Homo sapiens, UniProt Q9Y463)
[22] = target: panel of more than 300 wild-type and mutant kinases (313 kinase panel) (Homo sapiens, UniProt P78368); conditions: 1 µM
[23] = target: panel of more than 300 wild-type and mutant kinases (313 kinase panel) (Homo sapiens, UniProt Q96PN8); conditions: 1 µM

The chains behind the UniProt entries cited, without tags or fusion partners. Residues count along the entry.
UniProt Q16816, whole entry, stated change not applied: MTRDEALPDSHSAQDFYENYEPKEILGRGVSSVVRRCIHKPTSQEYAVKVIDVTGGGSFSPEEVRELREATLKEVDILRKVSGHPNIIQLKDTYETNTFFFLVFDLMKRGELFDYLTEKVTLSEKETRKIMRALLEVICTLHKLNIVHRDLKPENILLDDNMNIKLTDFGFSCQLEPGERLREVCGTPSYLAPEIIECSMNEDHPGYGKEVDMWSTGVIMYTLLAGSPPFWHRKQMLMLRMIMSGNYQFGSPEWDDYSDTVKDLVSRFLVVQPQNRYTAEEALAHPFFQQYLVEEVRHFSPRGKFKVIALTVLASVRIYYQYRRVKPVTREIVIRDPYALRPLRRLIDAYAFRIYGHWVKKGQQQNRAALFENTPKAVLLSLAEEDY
UniProt Q06418, 41-890, stated change not applied: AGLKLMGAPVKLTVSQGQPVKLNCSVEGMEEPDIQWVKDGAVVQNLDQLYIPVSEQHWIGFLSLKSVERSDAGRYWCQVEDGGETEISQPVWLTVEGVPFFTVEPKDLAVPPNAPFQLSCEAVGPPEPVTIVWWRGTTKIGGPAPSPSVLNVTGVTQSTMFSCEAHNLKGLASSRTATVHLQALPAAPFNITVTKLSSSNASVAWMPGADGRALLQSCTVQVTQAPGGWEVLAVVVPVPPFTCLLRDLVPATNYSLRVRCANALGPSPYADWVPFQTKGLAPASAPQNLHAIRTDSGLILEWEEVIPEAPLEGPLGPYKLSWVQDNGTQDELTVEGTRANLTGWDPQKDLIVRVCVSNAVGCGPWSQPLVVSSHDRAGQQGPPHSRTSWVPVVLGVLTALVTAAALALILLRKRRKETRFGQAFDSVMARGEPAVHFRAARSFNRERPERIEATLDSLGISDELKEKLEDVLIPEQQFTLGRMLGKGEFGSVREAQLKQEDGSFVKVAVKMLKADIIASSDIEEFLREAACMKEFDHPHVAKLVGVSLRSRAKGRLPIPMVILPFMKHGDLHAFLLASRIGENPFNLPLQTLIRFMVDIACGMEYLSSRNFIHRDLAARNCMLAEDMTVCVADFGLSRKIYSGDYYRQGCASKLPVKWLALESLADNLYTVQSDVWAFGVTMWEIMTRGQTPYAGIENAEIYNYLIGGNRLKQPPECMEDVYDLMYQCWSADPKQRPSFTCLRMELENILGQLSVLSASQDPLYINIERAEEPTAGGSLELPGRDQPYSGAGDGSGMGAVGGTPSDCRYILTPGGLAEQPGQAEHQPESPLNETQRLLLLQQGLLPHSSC
UniProt P49759, whole entry, stated change not applied: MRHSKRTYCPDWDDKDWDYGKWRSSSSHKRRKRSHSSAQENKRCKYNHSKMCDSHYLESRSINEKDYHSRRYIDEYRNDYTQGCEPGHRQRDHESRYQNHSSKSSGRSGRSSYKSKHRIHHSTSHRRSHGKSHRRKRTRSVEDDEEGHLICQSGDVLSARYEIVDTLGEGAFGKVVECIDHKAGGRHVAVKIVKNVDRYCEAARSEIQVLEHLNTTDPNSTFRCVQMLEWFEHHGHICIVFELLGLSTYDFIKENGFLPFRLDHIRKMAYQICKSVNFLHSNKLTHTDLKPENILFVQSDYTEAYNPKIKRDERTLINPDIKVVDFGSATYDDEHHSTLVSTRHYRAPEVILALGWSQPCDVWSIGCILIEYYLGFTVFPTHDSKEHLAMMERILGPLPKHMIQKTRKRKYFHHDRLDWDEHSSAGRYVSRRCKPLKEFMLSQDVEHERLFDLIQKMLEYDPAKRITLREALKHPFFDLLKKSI
UniProt P21802, 22-821, stated change not applied: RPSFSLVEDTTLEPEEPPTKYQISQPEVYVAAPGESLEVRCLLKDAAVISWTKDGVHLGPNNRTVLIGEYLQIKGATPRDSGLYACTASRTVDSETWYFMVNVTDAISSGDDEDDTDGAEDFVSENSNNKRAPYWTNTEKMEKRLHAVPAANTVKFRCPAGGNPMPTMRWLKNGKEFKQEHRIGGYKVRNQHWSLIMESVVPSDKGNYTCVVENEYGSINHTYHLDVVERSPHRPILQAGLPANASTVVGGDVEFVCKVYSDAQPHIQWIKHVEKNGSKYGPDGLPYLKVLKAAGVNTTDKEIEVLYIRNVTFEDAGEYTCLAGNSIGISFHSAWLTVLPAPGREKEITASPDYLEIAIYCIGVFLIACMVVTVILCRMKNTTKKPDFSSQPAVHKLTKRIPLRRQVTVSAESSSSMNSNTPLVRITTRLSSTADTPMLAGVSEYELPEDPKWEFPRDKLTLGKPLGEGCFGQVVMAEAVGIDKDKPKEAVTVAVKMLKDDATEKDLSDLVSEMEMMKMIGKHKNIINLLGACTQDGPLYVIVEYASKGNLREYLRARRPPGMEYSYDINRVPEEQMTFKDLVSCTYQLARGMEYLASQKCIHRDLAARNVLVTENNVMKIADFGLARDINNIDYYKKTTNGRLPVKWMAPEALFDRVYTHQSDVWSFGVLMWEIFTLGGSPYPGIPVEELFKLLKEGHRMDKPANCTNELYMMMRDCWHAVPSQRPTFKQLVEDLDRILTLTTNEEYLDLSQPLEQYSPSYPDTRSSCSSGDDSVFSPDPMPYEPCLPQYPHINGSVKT
UniProt Q9P0L2, whole entry, stated change not applied: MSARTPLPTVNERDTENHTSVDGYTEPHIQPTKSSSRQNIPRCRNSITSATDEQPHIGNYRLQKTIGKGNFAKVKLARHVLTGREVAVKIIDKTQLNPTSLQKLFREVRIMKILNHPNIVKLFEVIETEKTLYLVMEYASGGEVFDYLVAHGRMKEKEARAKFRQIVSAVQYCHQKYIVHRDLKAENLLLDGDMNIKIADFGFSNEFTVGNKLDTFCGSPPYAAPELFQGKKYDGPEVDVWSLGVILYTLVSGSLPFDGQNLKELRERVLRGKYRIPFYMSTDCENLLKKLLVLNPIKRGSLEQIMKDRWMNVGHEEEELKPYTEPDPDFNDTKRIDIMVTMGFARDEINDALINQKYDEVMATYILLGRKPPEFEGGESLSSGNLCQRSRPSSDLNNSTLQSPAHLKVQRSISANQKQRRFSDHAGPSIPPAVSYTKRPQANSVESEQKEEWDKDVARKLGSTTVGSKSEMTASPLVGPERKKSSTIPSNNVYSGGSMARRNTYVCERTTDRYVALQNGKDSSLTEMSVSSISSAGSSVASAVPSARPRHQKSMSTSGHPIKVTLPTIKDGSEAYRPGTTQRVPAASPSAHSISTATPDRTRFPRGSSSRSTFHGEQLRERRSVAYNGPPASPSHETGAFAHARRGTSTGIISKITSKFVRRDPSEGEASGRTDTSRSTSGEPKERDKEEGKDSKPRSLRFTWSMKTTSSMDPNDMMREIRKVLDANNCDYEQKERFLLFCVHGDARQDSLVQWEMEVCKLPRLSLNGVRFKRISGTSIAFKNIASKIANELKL
UniProt P11309, whole entry, stated change not applied: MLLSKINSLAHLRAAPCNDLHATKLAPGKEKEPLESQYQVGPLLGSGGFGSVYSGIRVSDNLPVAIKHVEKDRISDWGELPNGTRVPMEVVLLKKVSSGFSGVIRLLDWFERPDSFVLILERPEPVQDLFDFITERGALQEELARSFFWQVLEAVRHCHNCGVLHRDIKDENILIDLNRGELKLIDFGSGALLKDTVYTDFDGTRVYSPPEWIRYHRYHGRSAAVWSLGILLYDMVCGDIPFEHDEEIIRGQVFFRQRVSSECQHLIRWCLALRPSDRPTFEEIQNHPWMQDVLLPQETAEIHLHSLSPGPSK
UniProt P16591, whole entry, stated change not applied: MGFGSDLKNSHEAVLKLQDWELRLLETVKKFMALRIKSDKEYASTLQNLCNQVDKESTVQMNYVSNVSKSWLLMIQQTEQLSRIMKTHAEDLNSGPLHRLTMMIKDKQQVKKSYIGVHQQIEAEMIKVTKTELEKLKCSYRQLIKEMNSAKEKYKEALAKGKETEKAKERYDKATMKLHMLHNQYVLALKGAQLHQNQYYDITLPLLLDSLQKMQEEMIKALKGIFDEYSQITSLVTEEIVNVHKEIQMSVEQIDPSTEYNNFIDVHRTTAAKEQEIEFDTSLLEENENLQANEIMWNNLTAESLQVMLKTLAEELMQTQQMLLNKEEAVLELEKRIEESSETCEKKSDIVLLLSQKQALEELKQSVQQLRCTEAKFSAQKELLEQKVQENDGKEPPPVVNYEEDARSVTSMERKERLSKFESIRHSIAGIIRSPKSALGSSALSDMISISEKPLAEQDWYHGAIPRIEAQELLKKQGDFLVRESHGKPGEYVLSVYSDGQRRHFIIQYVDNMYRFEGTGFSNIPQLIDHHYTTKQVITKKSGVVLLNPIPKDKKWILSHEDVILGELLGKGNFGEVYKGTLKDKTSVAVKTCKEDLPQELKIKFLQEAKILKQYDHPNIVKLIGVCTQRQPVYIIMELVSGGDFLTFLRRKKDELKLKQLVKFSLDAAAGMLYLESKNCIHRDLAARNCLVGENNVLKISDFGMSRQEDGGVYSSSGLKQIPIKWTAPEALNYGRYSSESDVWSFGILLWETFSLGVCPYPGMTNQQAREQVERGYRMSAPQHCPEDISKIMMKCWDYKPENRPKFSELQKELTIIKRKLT
UniProt Q8TDC3, whole entry, stated change not applied: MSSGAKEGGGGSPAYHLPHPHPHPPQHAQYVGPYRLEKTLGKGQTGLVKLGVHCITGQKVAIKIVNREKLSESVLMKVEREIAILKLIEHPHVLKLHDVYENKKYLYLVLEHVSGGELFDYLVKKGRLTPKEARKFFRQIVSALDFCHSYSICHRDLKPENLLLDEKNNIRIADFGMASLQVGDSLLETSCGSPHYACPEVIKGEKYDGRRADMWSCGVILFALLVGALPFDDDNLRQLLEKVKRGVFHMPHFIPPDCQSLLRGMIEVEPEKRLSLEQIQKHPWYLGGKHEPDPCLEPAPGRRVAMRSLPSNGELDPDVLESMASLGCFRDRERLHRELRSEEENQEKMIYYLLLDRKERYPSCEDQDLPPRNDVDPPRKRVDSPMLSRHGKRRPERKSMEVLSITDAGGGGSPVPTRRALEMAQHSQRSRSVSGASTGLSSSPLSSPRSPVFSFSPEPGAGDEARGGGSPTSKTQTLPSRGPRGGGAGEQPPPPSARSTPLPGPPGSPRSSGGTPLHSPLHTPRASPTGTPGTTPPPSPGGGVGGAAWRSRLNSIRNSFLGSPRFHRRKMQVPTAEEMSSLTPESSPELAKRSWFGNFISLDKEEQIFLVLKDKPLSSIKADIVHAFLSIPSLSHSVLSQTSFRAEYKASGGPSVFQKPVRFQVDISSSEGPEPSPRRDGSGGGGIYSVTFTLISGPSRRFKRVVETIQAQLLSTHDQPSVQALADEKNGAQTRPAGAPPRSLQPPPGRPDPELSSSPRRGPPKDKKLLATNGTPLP
UniProt Q9Y463, whole entry, stated change not applied: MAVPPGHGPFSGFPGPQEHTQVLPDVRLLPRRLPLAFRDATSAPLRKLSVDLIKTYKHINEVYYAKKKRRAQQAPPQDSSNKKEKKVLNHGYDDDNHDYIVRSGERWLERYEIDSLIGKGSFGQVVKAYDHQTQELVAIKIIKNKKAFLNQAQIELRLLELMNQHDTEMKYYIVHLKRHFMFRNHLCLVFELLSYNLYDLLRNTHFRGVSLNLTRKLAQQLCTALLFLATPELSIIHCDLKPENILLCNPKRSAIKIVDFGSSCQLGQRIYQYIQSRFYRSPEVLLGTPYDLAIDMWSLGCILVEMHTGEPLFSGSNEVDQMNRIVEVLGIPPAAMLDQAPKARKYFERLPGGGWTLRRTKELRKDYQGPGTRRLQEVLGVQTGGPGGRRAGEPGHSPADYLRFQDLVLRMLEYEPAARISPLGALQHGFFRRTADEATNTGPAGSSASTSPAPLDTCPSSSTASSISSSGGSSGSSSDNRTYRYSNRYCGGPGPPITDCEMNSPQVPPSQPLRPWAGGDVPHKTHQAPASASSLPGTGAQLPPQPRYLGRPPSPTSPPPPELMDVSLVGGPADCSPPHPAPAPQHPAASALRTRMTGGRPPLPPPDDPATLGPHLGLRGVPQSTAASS
UniProt P78368, whole entry, stated change not applied: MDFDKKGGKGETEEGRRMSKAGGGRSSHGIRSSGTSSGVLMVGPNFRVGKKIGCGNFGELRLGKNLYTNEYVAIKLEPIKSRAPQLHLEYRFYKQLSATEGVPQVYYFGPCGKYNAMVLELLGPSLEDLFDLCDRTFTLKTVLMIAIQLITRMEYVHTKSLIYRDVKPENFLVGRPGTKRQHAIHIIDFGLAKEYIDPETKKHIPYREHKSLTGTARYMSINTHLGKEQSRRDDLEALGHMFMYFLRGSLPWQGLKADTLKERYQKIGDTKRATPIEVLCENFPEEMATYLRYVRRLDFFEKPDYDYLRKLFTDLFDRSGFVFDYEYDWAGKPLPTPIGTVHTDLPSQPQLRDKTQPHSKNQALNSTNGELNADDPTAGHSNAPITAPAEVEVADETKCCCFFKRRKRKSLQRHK
UniProt Q96PN8, whole entry, stated change not applied: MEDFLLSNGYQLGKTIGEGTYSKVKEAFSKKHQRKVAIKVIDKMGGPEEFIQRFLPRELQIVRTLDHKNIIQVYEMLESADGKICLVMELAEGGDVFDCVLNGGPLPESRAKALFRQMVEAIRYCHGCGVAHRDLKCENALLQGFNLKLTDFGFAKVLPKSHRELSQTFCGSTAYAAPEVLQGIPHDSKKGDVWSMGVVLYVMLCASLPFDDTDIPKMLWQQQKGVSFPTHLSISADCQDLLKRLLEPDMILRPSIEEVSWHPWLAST

Row | Compound | %-inhibition of EPHA7 [2] [%] | %-inhibition of TRKC [3] [%] | %-inhibition of TIE2 [4] [%] | %-inhibition of TYRO3 [5] [%] | %-inhibition of HIPK2 [6] [%] | %-inhibition of CLK3 [7] [%] | %-inhibition of TEC [8] [%] | %-inhibition, CLK1 [9] [%] | %-inhibition of PDGFRα [10] [%] | %-inhibition of TSSK1 [11] [%] | %-inhibition of FGFR2 [12] [%] | %-inhibition of MAPKAPK5 [13] [%] | %-inhibition of MARK1 [14] [%] | %-inhibition of PIM1 [15] [%] | %-inhibition of FER [16] [%] | %-inhibition of MNK1 [17] [%] | %-inhibition of MAP2K2 [18] [%] | %-inhibition of MSK2 [19] [%] | %-inhibition, BRSK1 [20] [%] | %-inhibition of DYRK1B [21] [%] | other results
1 | CNC(=O)c1ccccc1Sc1ccc2c(/C=C/c3ccccn3)n[nH]c2c1 [axitinib] |  |  |  |  |  |  |  |  |  |  |  |  |  |  |  |  |  |  |  |  | %-inhibition of PHKG1 ([1]; kinase PHKG1, 1 μM): 0.391%
2 | COc1cc2ncnc(Nc3ccc(F)c(Cl)c3)c2cc1OCCCN1CCOCC1 [gefitinib] | 49 | 7.46 | 0.787 | 26 | 12 | 0.938 | 27 | 23 | 54 | 10 | 13 | 3 | 14 | 17 | 6 | 99 | 7.39 | 2 | 10 | 14 | %-inhibition, CK1γ2 [22]: 26%; %-inhibition of TSSK3 [23]: 2%
3 | C[C@@H]1CCN(C(=O)CC#N)C[C@@H]1N(C)c1ncnc2[nH]ccc12 [tofacitinib] | -2 | 3.69 | -0.857 | 0.492 | -8 | -12 | -2.48 | -1.42 | 24 | -1.16 | 17 | -7 | 41 | -9 | 3.58 | -1.62 | 6 | -2.74 | -2.57 | -4.63 | %-inhibition of PHKG1 ([1]; 1 µM): 1.3%; %-inhibition, CK1γ2 [22]: -3.77%; %-inhibition of TSSK3 [23]: -3%

— paper PMC3961306, “Comparison of the Cancer Gene Targeting and Biochemical Selectivities of All Targeted Kinase Inhibitors Approved for Clinical Use” (PLoS ONE, 2014)
